For one molecule, IC50 results are on record in patent US11225492B2, “Heterocycles useful as anti-cancer agents” (Hangzhou Innogate Pharma Co., Ltd., priority 2015, dated 2022).

Chains of the proteins cited; added tags and fusions are not shown.
UniProt Q00534, whole entry, species assumed: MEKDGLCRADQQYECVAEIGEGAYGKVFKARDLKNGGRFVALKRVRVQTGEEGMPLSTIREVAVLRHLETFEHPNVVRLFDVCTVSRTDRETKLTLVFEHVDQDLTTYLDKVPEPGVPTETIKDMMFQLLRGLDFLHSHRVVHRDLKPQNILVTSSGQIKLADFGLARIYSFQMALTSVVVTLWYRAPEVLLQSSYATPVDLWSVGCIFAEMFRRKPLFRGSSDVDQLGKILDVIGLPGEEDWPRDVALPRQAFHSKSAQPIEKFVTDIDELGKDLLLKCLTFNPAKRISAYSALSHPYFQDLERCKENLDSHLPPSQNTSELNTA
UniProt P11802, whole entry, species assumed: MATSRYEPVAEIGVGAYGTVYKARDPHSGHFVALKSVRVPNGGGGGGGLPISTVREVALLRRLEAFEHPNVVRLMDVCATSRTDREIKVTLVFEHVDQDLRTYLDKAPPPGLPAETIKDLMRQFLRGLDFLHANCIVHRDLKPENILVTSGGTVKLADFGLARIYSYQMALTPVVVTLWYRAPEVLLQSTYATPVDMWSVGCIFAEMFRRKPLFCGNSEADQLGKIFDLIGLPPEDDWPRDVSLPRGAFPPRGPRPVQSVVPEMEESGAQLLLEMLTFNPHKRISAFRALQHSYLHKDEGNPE

Holding throughout (format): biochemical
For one assay, the target named is CDK6/cycD3 (Homo sapiens (Human), UniProt Q00534). As to the kind of experiment: CDK6/cycD3 kinase Mobility Shift Assay. The conditions noted are these: CDK6/cycD3 15 nM, ATP Km 800 μM, 60 min, 28° C. Here is the method:
(§1) 1. CDK2, CDK4 and CDK6 Kinase Assays:
(§2) CDK2/CycA2 and CDK6/cycD3 were assayed under buffer conditions in the presence of 50 mM HEPES (pH 7.5), 10 mM MgCl2, 0.0015% Brij-35, and 2 mM dithiothreitol, CDK4/CycD3 with buffer condition of 20 mM HEPES (pH 7.5), 10 mM MgCl2, 0.01% Triton X-100, and 2 mM dithiothreitol. Prepare compounds to 50× of the final desired highest inhibitor concentration by 100% DMSO and serial dilution in 3-fold for total of 10 concentrations. […] After assay for 60 min, 180 min, 60 min respectively at 28° C., reactions were terminated with stop solution (50 mM EDTA, 0.015% Brij-35, 0.2% Coating Reagent #3 and 100 mM HEPES (pH 7.5)). Collect conversion on Caliper EZ Reader. IC50 values were calculated by fitting the dose-response curves with Xlfit excel add-in version 4.3.1.

The next assay deals with CDK2/CycA2 (Homo sapiens (Human), UniProt P24941). As to the kind of experiment: CDK2/CycA2 kinase Mobility Shift Assay. The conditions noted are these: CDK2/CycA2 12 nM, ATP Km 39 μM, 60 min, 28° C. Here is the method:
as §1, §2

The target in a further assay is CDK4/CycD3 (Homo sapiens (Human), UniProt P11802). As to the kind of experiment: CDK4/CycD3 kinase Mobility Shift Assay. To be noted: CDK4/CycD3 10 nM, ATP Km 221 μM, 180 min, 28° C. Here is the method: as §1, §2

Broadly, the IC50 is the concentration at which inhibition is half-maximal.

As to `CC(=O)c1c(C)c2cnc(Nc3ccc(N4CCC5(CCNCC5)CC4)cn3)nc2n(C2CCCC2)c1=O` [Compound 5, 2-(5-(3,9-diazaspiro[5.5]undecan-3-yl)pyridin-2-ylamino)-6-acetyl-8-cyclopentyl-5-methylpyrido[2,3-d]pyrimidin-7(8H)-one], the IC50 is < 25 nM at CDK6/cycD3, > 5000 nM at CDK2/CycA2 and < 10 nM on CDK4/CycD3.
